Patent EP1117420B1, “PHARMACEUTICAL COMPOSITIONS BASED ON ALPHA-CYCLODEXTRIN FOR THE ORAL ADMINISTRATION OF LH-RH ANALOGUES” (LABORATOIRE THERAMEX S.A., priority 1998, dated 2000)

What was measured:
LH-RH receptors [1] = target: T1, LH-RH receptors (Rattus norvegicus, UniProt P30969); test: stimulation of testosterone secretion after oral gavage (plasma testosterone by radioimmunoassay); assay type: in vivo, Sprague-Dawley rats; set-up: from tissue; host or cells: pituitary of living adult male Sprague-Dawley rats (in vivo); conditions: for testosterone levels (ng/ml); (m ± sem) / enhancement of agonist activity on testosterone: 5 µg/kg p.o.; for testosterone levels (ng/ml); (m ± sem): 2 hours after administration; for total plasma testosterone (nmol/l) (m ± sem): 2 nmoles/rat by oral gavage, blood 2 hours after administration, male rats
T1 sequence (P30969 1-327): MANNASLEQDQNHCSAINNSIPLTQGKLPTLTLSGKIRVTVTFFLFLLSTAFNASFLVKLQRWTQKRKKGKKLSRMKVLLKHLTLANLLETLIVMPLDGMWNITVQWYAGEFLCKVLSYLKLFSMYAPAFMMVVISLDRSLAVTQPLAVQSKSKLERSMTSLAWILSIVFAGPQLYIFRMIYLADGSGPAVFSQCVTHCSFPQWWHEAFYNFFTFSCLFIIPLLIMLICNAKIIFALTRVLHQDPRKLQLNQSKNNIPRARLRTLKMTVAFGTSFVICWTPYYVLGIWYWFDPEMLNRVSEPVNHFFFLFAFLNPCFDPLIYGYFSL
Description: For screening purposes, blood samples were drawn 2 hours after oral administration of a common dose of 2 nmoles/rat of LH-RH peptide agonists in an aqueous solution containing 10 or 100 mM of α-CD (Tables 1 and 2; Figures 1, 4 and 6). […] Total plasma testosterone (Diagnostic System Laboratories) and LH (Amersham Pharmacia Biotech) determinations were performed by radioimmunoassay. In screening 2-hour experiments, each group comprised between 6 and 8 rats; each time point of the kinetic study was studied on four animals.
All α-CD derivatives were purchased from Cyclolab (Budapest, Hungary).
(§1) Then, the α-CD solution was added to fill the flask up to 10 ml to make a 2 nmol/ml solution of which 1ml was administered by oral gavage to each rat.
After overnight magnetic stirring at room temperature, each solution was given to rats by oral gavage in a 4 ml/kg volume to administer the same dose of 5 µg/kg of example 2 without or with increasing concentrations of α-CD.

LH-RH receptors [2] = target: T1, LH-RH receptors; test: stimulation of LH secretion after oral gavage (plasma LH by radioimmunoassay); assay type: in vivo, Sprague-Dawley rats; set-up: from tissue; host or cells: pituitary of living adult male Sprague-Dawley rats (in vivo); conditions: for total plasma LH (ng/ml) (m ± sem): 2 nmoles/rat by oral gavage, blood 2 hours after administration, male rats
Description: […] […] Total plasma testosterone (Diagnostic System Laboratories) and LH (Amersham Pharmacia Biotech) determinations were performed by radioimmunoassay. In screening 2-hour experiments, each group comprised between 6 and 8 rats; each time point of the kinetic study was studied on four animals.
Two hours after administration, plasma LH levels were measured on eight rats per dose group (Figure 7).
as §1

[3] = without α-CD (standard aqueous vehicle)

Substance	testosterone levels (ng/ml); (m ± sem) (LH-RH receptors [1]; carboxymethylated α-CD (50%))	testosterone levels (ng/ml); (m ± sem) (LH-RH receptors [1]; cyclodextrin: none)	testosterone levels (ng/ml); (m ± sem) (LH-RH receptors [1]; methylated α-CD (30%))	testosterone levels (ng/ml); (m ± sem) (LH-RH receptors [1]; permethylated α-CD (15%))	testosterone levels (ng/ml); (m ± sem) (LH-RH receptors [1]; phosphated α-CD (30%))	testosterone levels (ng/ml); (m ± sem) (LH-RH receptors [1]; α-CD (10%))	oral activity (stimulation of testosterone secretion) (LH-RH receptors [1]; combined with 10 mM α-CD (0.972%), 2 nmoles/rat, Figure 1)	enhancement of agonist activity on testosterone (LH-RH receptors [1]; native α-CD versus no cyclodextrin)	enhancement of agonist activity on testosterone (LH-RH receptors [1]; permethylated α-CD versus no cyclodextrin)	total plasma testosterone (nmol/l) (m ± sem) (LH-RH receptors [1]; with α-CD (100 mM solution))	total plasma testosterone (nmol/l) (m ± sem) (LH-RH receptors [1]; [3])	plasma LH levels (LH-RH receptors [2]; example 3 alone, 5 µg/kg p.o., two hours after administration, Figure 7)	plasma LH levels (LH-RH receptors [2]; example 3 alone, 10 and 20 µg/kg p.o., two hours after administration, Figure 7)	plasma LH levels (LH-RH receptors [2]; example 3 given alone, 2.5, 5 and 10 µg/kg p.o., Figure 7)	plasma LH levels (LH-RH receptors [2]; with 10% permethylated α-CD, 2.5, 5 and 10 µg/kg p.o., two hours, Figure 7)	enhancement of LH-releasing activity (LH-RH receptors [2]; with 10% α-CD, 20 µg/kg p.o., compared with example 3 alone)	plasma LH levels (LH-RH receptors [2]; with 10% α-CD, 5 and 10 µg/kg p.o., two hours, compared with example 3 alone)	total plasma LH (ng/ml) (m ± sem) (LH-RH receptors [2]; with α-CD (100 mM solution))	total plasma LH (ng/ml) (m ± sem) (LH-RH receptors [2]; without α-CD)
[Npg^7]leuprorelin [Example 3]	6.9 ± 1.62 ng/mL	1.0 ± 0.17 3.4 ± 0.79 ng/ml	7.1 ± 1.59 ng/mL	12.9 ± 1.10 ng/mL	7.4 ± 2.00 ng/mL	10.0 ± 1.22 ng/mL	not significantly improved	2.9 fold	3.8 fold	69.7 ± 3.6 nmol/L	39.7 ± 8.11 nmol/L	inactive	threshold doses	remained inactive	sharp dose-related stimulatory response	over 5 fold	slight but significant stimulations	10.9 ± 1.66 ng/mL	2.2 ± 0.58 ng/mL
leuprorelin [reference compound]	–	–	–	–	–	–	–	–	–	70.7 ± 4.06 nmol/L	26.3 ± 5.77 nmol/L	–	–	–	–	–	–	12.3 ± 2.03 ng/mL	1.2 ± 0.14 ng/mL
